Data taken from PMC5727842, “Antioxidant and Antidiabetic Effects of Flavonoids: A Structure-Activity Relationship Based Study” (BioMed Research International, 2017).
pIC50: −log10 of the molar value. Several values for one entry are separate records, joined by “and”; a condition that tells them apart may be missing. Equal values may be shown once.

By UniProt entry, the sequences of proteins in these tests, tags left out.
UniProt P80457, whole entry: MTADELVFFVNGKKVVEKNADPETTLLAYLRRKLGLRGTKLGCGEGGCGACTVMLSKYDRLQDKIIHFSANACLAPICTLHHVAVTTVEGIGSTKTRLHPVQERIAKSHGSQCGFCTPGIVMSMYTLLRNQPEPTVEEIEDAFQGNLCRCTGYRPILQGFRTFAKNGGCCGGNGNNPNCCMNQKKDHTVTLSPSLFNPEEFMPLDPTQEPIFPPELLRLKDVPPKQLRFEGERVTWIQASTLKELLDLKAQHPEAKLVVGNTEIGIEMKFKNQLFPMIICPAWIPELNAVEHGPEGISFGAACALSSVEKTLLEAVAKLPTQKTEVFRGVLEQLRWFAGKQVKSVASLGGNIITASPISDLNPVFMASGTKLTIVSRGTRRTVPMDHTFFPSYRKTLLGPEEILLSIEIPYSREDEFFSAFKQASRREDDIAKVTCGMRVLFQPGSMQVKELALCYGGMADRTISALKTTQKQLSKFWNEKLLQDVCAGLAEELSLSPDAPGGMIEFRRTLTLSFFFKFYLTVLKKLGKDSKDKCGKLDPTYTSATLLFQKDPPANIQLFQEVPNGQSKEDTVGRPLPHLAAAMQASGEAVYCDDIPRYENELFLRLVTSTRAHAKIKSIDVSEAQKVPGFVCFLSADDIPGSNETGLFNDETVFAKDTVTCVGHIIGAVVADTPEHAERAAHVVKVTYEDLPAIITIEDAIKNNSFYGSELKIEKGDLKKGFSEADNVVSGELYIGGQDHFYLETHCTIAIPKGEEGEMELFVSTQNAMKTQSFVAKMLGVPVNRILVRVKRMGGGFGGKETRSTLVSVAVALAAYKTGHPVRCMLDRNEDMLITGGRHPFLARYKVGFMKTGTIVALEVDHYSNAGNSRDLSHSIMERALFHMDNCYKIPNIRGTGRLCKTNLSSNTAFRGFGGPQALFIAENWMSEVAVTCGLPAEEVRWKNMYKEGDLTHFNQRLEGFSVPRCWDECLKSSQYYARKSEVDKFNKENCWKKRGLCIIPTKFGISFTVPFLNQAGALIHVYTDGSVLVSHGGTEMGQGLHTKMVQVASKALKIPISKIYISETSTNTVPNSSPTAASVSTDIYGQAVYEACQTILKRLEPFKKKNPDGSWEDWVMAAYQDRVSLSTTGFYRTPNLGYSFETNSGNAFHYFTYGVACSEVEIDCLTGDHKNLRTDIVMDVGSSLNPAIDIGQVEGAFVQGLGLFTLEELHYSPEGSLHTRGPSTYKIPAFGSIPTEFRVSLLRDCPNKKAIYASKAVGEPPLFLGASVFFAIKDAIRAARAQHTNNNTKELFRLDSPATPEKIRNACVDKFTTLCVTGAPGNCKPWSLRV

Molecular target: xanthine oxidase from buttermilk (Bos taurus, UniProt P80457)
Assay: Xanthine oxidase inhibitory assay (XOI)

pIC50: 4.55 and 4.24
Structure (SMILES): O=c1c(O)c(-c2ccc(O)cc2)oc2cc(O)cc(O)c12 [Kaempferol, 4′,3,5,7-Tetrahydroxyflavone]
